## Measured affinities in a library of Ab-91 heavy chain variants

From the AlphaSeq antibody data of Engelhart et al. 2022 (doi:10.1038/s41597-022-01779-4), copy in the FLAb collection.

Antigen: PDVDLGDISGINAS, a 14-residue peptide of the SARS-CoV-2 spike HR2 region.

Parent scFv Ab-91: VL joined to VH by the linker GGGGSGGGGSGGGGS. Changes lie in the heavy chain CDRs alone.
VL: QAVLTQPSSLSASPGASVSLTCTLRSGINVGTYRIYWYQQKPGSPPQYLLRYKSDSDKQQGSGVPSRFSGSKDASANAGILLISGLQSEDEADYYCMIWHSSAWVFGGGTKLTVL
VH: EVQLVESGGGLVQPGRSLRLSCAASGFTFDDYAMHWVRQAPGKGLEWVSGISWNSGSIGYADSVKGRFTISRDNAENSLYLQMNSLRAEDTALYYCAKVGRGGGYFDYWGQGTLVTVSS

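The starting antibody came from a phage panning campaign against this peptide. Variants in AAYL51 differ from the parent at up to three CDR positions; double and triple changes were sampled at random. Affinity was read by AlphaSeq, a pooled yeast mating assay with surface-displayed partners. Pairs that bind mate more often; barcode pairs of the diploids are counted by sequencing. A regression on co-assayed BCL2-family reference pairs converts the normalised counts of each replicate to an apparent Kd. The assay was run in three technical replicates.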

Positions count from residue 1 of the parent VH; S52K puts K in place of S. All variants listed here change S52 of the VH, counted from its first residue. Scale: log10 of Kd in nM, estimated from mating counts; low values are strong binders. Replicates are averaged; those with no signal do not enter the mean. Where no diploid with the target was found in any replicate, the entry reads "nd": below detection, most likely a poor binder, though not proof of it. Parent in this assay: reference entry 1.86, copy in this library 0.88.

changes,mean log10 Kd (nM),replicates with signal
S52K/A61Y/G100T,nd,0 of 3
S52C/A61Y/Y108V,nd,0 of 3
A33L/H35Y/S52W,nd,0 of 3
T28G/S52G/S63W,nd,0 of 3
S52V/V64G/G102E,nd,0 of 3
S52H/D62F/Y108V,4.23,2 of 3
G26T/S52Y/G104I,4.27,3 of 3
S52M/G102A/Y108A,5.41,2 of 3
S52D/G59M/K65M,nd,0 of 3
S52N/W53F/I58A,2.94,3 of 3
S52W/G56R/G59S,4.90,1 of 3
S52M/Y60W/S63R,nd,0 of 3
S52C/V64C/R101E,nd,0 of 3
F27L/S52D/Y60I,nd,0 of 3
S52L/G102D/Y105A,5.98,1 of 3
D30W/S52L/V99R,4.25,1 of 3
F27K/H35W/S52D,2.62,1 of 3
I51Q/S52W/R101G,5.47,2 of 3
S52Y/S63W/V64G,2.62,1 of 3
S52A/Y60C/V99I,5.18,3 of 3
S52H/I58R/K65N,nd,0 of 3
S52F/G103T,nd,0 of 3
G50H/S52Q/N54L,4.28,3 of 3
Y32F/S52D/Y108S,2.84,3 of 3
G50E/S52L/S57N,2.56,1 of 3
S52Q/I58N/D62A,4.38,1 of 3
S52T/S55I/Y60T,nd,0 of 3
A33G/S52I/S63H,4.06,2 of 3
S52G/G102P/G103M,5.41,1 of 3
Y32W/S52C/G103V,4.59,1 of 3
D31A/M34L/S52W,nd,0 of 3
S52I/V99H/G100H,5.39,3 of 3
G26P/S52E/V99Y,3.38,1 of 3
D30Y/S52K/Y60F,4.90,3 of 3
D30L/S52N/V99P,nd,0 of 3
S52C/W53V/G56L,nd,0 of 3
S52I/G102K/D107M,nd,0 of 3
S52I/G56Q/S57M,3.75,1 of 3
D31K/S52Q/G59E,nd,0 of 3
S52V/G59P/D107K,5.53,3 of 3
S52L/D62P/S63R,nd,0 of 3
G26M/S52R/V99P,4.85,3 of 3
H35G/S52T,nd,0 of 3
S52R/Y108I,nd,0 of 3
S52C/G100A/D107K,nd,0 of 3

The last 6 entries again:

{"changes": "S52V/G59P/D107K", "mean log10 Kd (nM)": "5.53", "replicates with signal": "3 of 3"}
{"changes": "S52L/D62P/S63R", "mean log10 Kd (nM)": "nd", "replicates with signal": "0 of 3"}
{"changes": "G26M/S52R/V99P", "mean log10 Kd (nM)": "4.85", "replicates with signal": "3 of 3"}
{"changes": "H35G/S52T", "mean log10 Kd (nM)": "nd", "replicates with signal": "0 of 3"}
{"changes": "S52R/Y108I", "mean log10 Kd (nM)": "nd", "replicates with signal": "0 of 3"}
{"changes": "S52C/G100A/D107K", "mean log10 Kd (nM)": "nd", "replicates with signal": "0 of 3"}

As a blank, each scFv also met three strains without target: over library AAYL51, 21% of these pairings were detected, typically at 4.54 and seldom below 3.26.